Protein sequences, listed by entry. Tags and fused reporters are not part of them.
UniProt Q92731, whole entry: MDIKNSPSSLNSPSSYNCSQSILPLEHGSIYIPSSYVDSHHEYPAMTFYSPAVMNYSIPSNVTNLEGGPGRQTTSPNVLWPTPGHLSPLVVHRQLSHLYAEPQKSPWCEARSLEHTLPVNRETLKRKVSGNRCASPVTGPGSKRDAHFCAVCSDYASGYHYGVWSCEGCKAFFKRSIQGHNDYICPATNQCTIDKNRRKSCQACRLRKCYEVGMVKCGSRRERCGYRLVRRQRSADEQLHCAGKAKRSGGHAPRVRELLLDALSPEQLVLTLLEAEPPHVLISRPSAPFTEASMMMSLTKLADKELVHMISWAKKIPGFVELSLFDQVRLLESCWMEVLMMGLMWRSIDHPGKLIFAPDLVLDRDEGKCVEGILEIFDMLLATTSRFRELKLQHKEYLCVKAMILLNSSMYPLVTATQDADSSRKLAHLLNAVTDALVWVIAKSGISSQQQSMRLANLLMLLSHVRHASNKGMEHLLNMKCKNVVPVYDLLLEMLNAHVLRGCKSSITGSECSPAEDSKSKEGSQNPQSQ

According to patent US20060051295A1 (published 2006):

Experiments:
[1] = molecular target: ER beta / cRel (Homo sapiens, UniProt Q92731); assay: Yeast two-hybrid ER beta / cRel
[2] = molecular target: ER beta / RelA (Homo sapiens, UniProt Q92731); assay: Yeast two-hybrid ER beta / RelA
[3] = molecular target: ER beta (Homo sapiens, UniProt Q92731); assay: Yeast two-hybrid ER beta, no partner

`C[C@]12CC[C@@H]3c4ccc(O)cc4CC[C@H]3[C@@H]1CC[C@@H]2O` [Org E2] was tested, and the β-galactosidase activity ([1]; E2 0.01 nM) was 404, the β-galactosidase activity ([1]; E2 0.1 nM) was 1818 and the β-galactosidase activity ([1]; E2 1 nM) was 2140. For the same molecule, the β-galactosidase activity ([1]; E2 10 nM) was 2656, the β-galactosidase activity ([1]; E2 100 nM) was 3216 and the β-galactosidase activity ([2]; E2 0.1 nM) was 144. The β-galactosidase activity ([2]; E2 1 nM) was 158, the β-galactosidase activity ([2]; E2 10 nM) was 182 and the β-galactosidase activity ([2]; E2 100 nM) was 156. The β-galactosidase activity ([3]; E2 0.01 nM) was 164, the β-galactosidase activity ([3]; E2 0.1 nM) was 188 and the β-galactosidase activity ([3]; E2 1 nM) was 178. It also gave a β-galactosidase activity ([3]; E2 10 nM) of 186 and a β-galactosidase activity ([3]; E2 100 nM) of 188.
